Laboratory results: paper PMC7034129, “C-2 phenyl replacements to obtain potent quinoline-based Staphylococcus aureus NorA inhibitors” (Journal of Enzyme Inhibition and Medicinal Chemistry, 2020)
In brackets after ≈: the same amount, converted by molar mass.

Experiments:
[1] = Cell viability assay (ATP bioluminescence); conditions: human
[2] = system: human leukemic monocyte cell line (THP-1); test: Cell viability assay (ATP bioluminescence); conditions: ratio between CC50 (THP-1) and minimum EPI concentration able to reduce by 4-fold CPX MIC

CCCOc1ccc(-c2cc(OCCN(CC)CC)c3ccccc3n2)cc1 [Compound 1, reference compound]
CC50 at 24 h [1]: 10 µg/mL (≈ 26.4 µM) | SI, selectivity index [2]: 1.6
